This passage reports Kd and IC50 results from patent US20210215714A1, “COMPLEMENT ALTERNATIVE PATHWAY-ASSOCIATED NEPHROPATHY BIOMARKERS” (Achillion Pharmaceuticals, Inc., priority 2018, published 2021).

By UniProt entry, the sequences of proteins in these tests, tags left out. Residues count along the entry.
UniProt P00746, 26-253: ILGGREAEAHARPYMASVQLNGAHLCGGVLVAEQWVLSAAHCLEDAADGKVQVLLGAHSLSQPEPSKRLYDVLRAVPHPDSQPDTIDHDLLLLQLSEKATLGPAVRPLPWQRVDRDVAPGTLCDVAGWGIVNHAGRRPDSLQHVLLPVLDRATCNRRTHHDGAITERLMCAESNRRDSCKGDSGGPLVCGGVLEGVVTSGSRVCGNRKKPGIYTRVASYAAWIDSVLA

Molecules are shown by their SMILES.

In assay [1] the target is T1, fD (Homo sapiens, UniProt P00746). The following applies: read-out: binding affinity to human fD, KD.
The target of assay [2] is T1, fD. The experiment in a line: biochemical.

For orientation: Kd means the concentration at which binding is half-saturated. In general, IC50 refers to the concentration needed to halve the response being measured. In the case of `CC(=O)c1nn(CC(=O)N2C[C@H](F)C[C@H]2C(=O)Nc2cccc(Br)n2)c2ccc(-c3cnc(C)nc3)cc12` [Compound 1, (2S,4R)-1-(2-(3-acetyl-5-(2-methylpyrimidin-5-yl)-1H-indazol-1-yl)acetyl)-N-(6-bromopyridin-2-yl)-4-fluoropyrrolidine-2-carboxamide], the Kd at fD [1] was 0.54 nM. Also, inhibition on fD [2] was half-maximal at 17 nM (IC50).
